Values of other authors as cited in paper PMC6311893, “Computational prediction of plasma protein binding of cyclic peptides from small molecule experimental data using sparse modeling techniques” (BMC Bioinformatics, 2018).
Read-outs that look alike come from different tables or passages of the source. This is a selection: effects in other tests are not listed, and their absence says nothing.

Test system: plasma protein
Conditions: fraction bound to plasma protein, small molecule dataset, sheet 1-SM, ref Ingle et al., cited from earlier work

SMILES | PPB (fb) (Set Dtr) | PPB (fb)
CC(C)N1CCC(N(C(=O)Cc2ccccc2)c2ccc(Cl)cc2)CC1 | 0.85 | 
O=[N+]([O-])OCC(CO[N+](=O)[O-])(CO[N+](=O)[O-])CO[N+](=O)[O-] |  | 0.85
